Laboratory results reported in patent publication US20180235949A1 (priority 2015, published 2018).

Tested on: MDR1-MDCK cells
Assay: MDR1-MDCK permeability and P-gp substrate identification (bi-directional)

COc1cc2nc(N3CCN(C(=O)c4ccco4)CC3)nc(N)c2cc1OC [prazosin, reference compound]
efflux (control compound) (in the absence of Cyclosporin A): showing efflux
efflux (control compound) (in the presence of Cyclosporin A): inhibited
